Assays:
human TLR2 [1] = target: T1, human TLR2 (Homo sapiens (Human), UniProt O60603); experiment: HEK-Blue hTLR2 antagonism assay (SEAP reporter), agonist Pam2CSK4; format: cell-based
Description: (§1) Synthetic diacylated lipoprotein (Pam2CSK4, TLR2/6 agonist) and synthetic triacylated lipoprotein (Pam3CSK4, TLR1/2 agonist) were obtained from InvivoGen and were dissolved in endotoxin-free water to a concentration 1 mg/mL, vortexed until complete solubilization, and stored in aliquots at −20° C. Prior to addition to cells, an aliquot of the dissolved ligand was vortexed shortly and then was diluted in medium to 25 ng/mL Pam2CSK4 or 1000 ng/mL Pam3CSK4.
(§2) Test compounds were solubilized fresh to 10-20 mM stocks in DMSO and sonicated for 5-10 minutes in a water bath sonicator. Serial dilutions were prepared in DMSO, and then diluted in medium. The final concentration of DMSO used in the assay was 1%.
(§3) HEK-Blue hTLR2 reporter cells (InvivoGen) are HEK-293 cells stably expressing both the human TLR2 gene and a secreted embryonic alkaline phosphatase (SEAP) reporter construct downstream of NFκB promotor sites. HEK-Blue hTLR2 reporters were cultured according to manufacturer's protocol using Dulbecco's Modified Eagle Medium (DMEM; Gibco) containing 1× GlutaMax (Gibco), 10% heat-inactivated Fetal Bovine Serum (Gibco), Pen-Strep (50 U/mL penicillin, 50 μg/mL streptomycin, Gibco), 100 μg/mL Normocin (InvivoGen), and the selective antibiotic, lx HEK-Blue Selection (InvivoGen). Quanti-Blue reagent (InvivoGen) for detection and quantification of secreted alkaline phosphatase was dissolved in 100 mL of endotoxin-free water, warmed to 37° C. for 30 minutes and then filtered using a 0.2 μm membrane.
On day 1, 50 μL of each test compound dilution in duplicates or a vehicle control was added to each well of a 96-well plate followed by addition of 150 μL of HEK-Blue hTLR2 cell suspension (1×10^5 cells/well) and incubated at 37° C./5% CO2 for 2 h. Next, 50 μL of an approximate 3×EC50 concentration of each agonist (Pam2CSK4 or Pam3CSK4) was added to the wells containing test compounds or the vehicle control. The plates were then incubated at 37° C./5% CO2 for 18 h. For each assay run, non-treated HEK-Blue hTLR2 cells were treated with serial dilutions of agonists to determine EC50 values for the respective run.
(§4) On day 2, secreted alkaline phosphatase (SEAP) activity was detected in cell culture supernatants. In brief, 20 μL was collected from each well and transferred to a 96-well plate. Next, 200 μL of Quanti-Blue detection reagent was added to each well. Plates were incubated at room temperature for 15 min and SEAP activity was assessed by spectrophotometer OD reading at 655 nm. […] IC50 values were calculated based on 8-point dilutions for each compound.

Chains of the proteins cited; added tags and fusions are not shown. Residues count along the entry.
UniProt O60603, 21-784: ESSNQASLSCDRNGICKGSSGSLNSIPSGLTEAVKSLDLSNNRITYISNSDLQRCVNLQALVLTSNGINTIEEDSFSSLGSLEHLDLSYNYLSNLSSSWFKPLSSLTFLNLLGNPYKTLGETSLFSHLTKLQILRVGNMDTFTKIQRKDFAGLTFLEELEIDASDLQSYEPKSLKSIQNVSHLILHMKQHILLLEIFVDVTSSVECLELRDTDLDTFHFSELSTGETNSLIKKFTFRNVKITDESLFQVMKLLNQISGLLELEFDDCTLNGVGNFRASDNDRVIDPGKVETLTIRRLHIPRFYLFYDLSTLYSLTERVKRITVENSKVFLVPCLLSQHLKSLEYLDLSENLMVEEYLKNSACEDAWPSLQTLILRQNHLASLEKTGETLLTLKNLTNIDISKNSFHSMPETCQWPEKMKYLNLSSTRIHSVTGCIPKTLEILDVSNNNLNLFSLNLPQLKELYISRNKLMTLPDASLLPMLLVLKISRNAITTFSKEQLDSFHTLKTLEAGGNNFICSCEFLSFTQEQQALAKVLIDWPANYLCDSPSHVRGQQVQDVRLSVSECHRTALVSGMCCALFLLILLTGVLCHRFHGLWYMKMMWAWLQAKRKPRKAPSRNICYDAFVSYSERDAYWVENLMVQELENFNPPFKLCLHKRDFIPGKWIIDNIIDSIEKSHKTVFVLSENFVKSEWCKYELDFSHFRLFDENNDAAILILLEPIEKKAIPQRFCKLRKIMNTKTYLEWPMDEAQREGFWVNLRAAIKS

human TLR2 [2] = target: T1, human TLR2; experiment: HEK-Blue hTLR2 antagonism assay (SEAP reporter), agonist Pam3CSK4; format: cell-based
Description: as §1, §2, §3
On day 1, 50 μL of each test compound dilution in duplicates or a vehicle control was added to each well of a 96-well plate followed by addition of 150 μL of HEK-Blue hTLR2 cell suspension (1×10^5 cells/well) and incubated at 37° C./5% CO2 for 2 h. […]
as §4, with “In brief, 20 μL was collected from each well and transferred to a 96-well plate. Next, 200 μL of Quanti-Blue detection reagent was added to each well.” left out

| SMILES | IC50 (human TLR2 [1]) [µM] | IC50 (human TLR2 [2]) [µM] |
| --- | --- | --- |
| O=Cc1cc(C(=O)N2CCCN(c3ccc(N4CCCC4)nc3)CC2)cc(F)c1O [Compound 141, 3-fluoro-2-hydroxy-5-(4-(6-(pyrrolidin-1-yl)pyridin-3-yl)-1,4-diazepane-1-carbonyl)benzaldehyde] | 50.4 | 40.1 |
| O=Cc1cc(C(=O)N2CCC(c3ccnc(N4CCCC4)c3)CC2)cc(F)c1O [Compound 36, 3-fluoro-2-hydroxy-5-(4-(2-(pyrrolidin-1-yl)pyridin-4-yl)piperidine-1-carbonyl)benzaldehyde] | 17.4 | 15.1 |
| O=Cc1cc(C(=O)N2CCC(O)(c3ccc(N4CCCC4)nc3)CC2)cc(F)c1O [Compound 142, 3-fluoro-2-hydroxy-5-(4-hydroxy-4-(6-(pyrrolidin-1-yl)pyridin-3-yl)piperidine-1-carbonyl)benzaldehyde] | 34.2 | 34.8 |
| O=Cc1cc(C(=O)N2CCS[C@@H](c3ccc(N4CCCC4)cc3)C2)cc(F)c1O [Compound 153, (S)-3-fluoro-2-hydroxy-5-(2-(4-(pyrrolidin-1-yl)phenyl)thiomorpholine-4-carbonyl)benzaldehyde] | 4.8 | – |

Reference: patent publication US20240043395A1, “COMPOUNDS AND COMPOSITIONS AS MODULATORS OF TLR SIGNALING” (Neuropore Therapies, Inc., priority 2020, published 2024)
